Measurements from patent US10246442B2, “4-Aminoquinazolin compounds as prolyl hydroxylase inhibitors” (JANSSEN PHARMACEUTICA NV, priority 2011, dated 2019).

Amino acid sequences for entries named in this document (tags omitted). Residues count along the entry.
UniProt Q9GZT9, 181-417: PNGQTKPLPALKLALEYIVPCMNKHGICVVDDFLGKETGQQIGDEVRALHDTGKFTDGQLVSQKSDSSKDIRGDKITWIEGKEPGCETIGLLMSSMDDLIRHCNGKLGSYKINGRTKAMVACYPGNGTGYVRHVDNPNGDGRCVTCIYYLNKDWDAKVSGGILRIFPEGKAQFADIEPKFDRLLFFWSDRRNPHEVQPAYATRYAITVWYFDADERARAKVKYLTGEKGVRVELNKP

Molecular target: PHD2181-417 (Homo sapiens (Human), UniProt Q9GZT9)
Assay: PHD enzymatic assay ([14C]-succinic acid production)
Format: biochemical
Settings: purified PHD2181-417, HIF-1α peptide substrate, 30 min pre-incubation; average of results
Experimental: Expression and Purification of PHD2181-417
The human PHD2 expression construct containing amino acids 181-417 of GenBank Accession ID NM_022051 was cloned into a pBAD vector (Invitrogen), incorporating both an N-terminal histidine tag and a Smt3-tag, both of which are cleaved by Ulp1. Protein production was achieved by expression in BL21 cells grown in Terrific Broth containing 100 μg/ml ampicillin. Cell cultures were inoculated at 37° C. and grown to an OD600 of 0.8. Cultures were induced with 0.1% arabinose and grown overnight at 20° C. with continuous shaking at 225 rpm. Cells were then harvested by centrifugation and stored at −80° C. Cell pellets were suspended in Buffer A (50 mM Tris-HCl pH 7.2, 100 mM NaCl, 100 mM L-arginine, 1 mM TCEP, 0.05% (w/v) NP-40, 50 mM imidazole) followed by the addition of lysozyme and benzonase. Cells were lysed by sonication and the lysate was cleared by centrifugation (15,000 rpm, 90 min, 4° C.). The protein was purified by nickel affinity chromatography using a HisTrap Crude FF column (GE Healthcare). Samples were eluted in Buffer A with a 50-200 mM imidazole gradient. Cleavage of the Smt tag with Ulp1 protease was achieved via overnight incubation with dialyzing against Buffer A. The PHD2181-417 sample was then passed over a second HisTrap Crude FF column (GE Healthcare) to remove uncleaved protein. The flow-through was then dialyzed into 50 mM MES pH 6.0, 1 mM TCEP, 5 mM NaCl for ion exchange chromatography on a HiTrap SP Cation Exchange column (GE Healthcare). The PHD2181-417 protein was eluted with a 0-0.2 M NaCl gradient. Fractions were pooled for further purification by size exclusion chromatography over a Superdex 75 Size Exclusion Column (GE Healthcare). Final protein was concentrated to 4 mg/ml and dialyzed in 10 mM PIPES pH 7.0, 100 mM NaCl, 0.5 mM TCEP. The protein was determined to have a purity of >95% by gel electrophoresis.
The PHD enzymatic assay was performed in 0.5 ml of reaction mixture containing the following: purified PHD2181-417 polypeptide (3 μg), synthetic HIF-1α peptide comprising residues [[…]] (10 μM, California Peptide Research Inc., Napa, Calif.), and [5-^14C]-2-oxoglutaric acid (50 mCi/mmol, Moravek Chemicals, Brea, Calif.) in reaction buffer (40 mM Tris-HCl, pH 7.5, 0.4 mg/ml catalase, 0.5 mM DTT, 1 mM ascorbate) for 10 minutes. Compounds were pre-incubated for 30 min before starting the reaction (all test compounds were dissolved at 10 mM in 100% DMSO (w/v) and were tested with final compound concentrations at 100 μM in 1% DMSO (w/v)). The reaction was stopped by addition of 50 μl of 70 mM H3PO4 and 50 μl of 500 mM NaH2PO4, pH 3.2. Detection of [^14C]-succinic acid was achieved by separating from [5-^14C]-2-oxoglutaric acid by incubating the reaction mixture with 100 μl of 0.16 M DNP prepared in 30% perchloric acid. Next, 50 μl of unlabeled 20 mM 2-oxoglutaric acid/20 mM succinic acid, serving as carrier for the radioactivity, was added to the mixture, and was allowed to proceed for 30 minutes at room temperature. The reaction was then incubated with 50 μl of 1 M 2-oxoglutaric acid for 30 additional minutes at room temperature to precipitate the excess DNP. The reaction was then centrifuged at 2800×g for 10 minutes at room temperature to separate [^14C]-succinic acid in the supernatant from the precipitated [^14C]-dinitrophenylhydrazone. Fractions of the supernatant (400 μI) were counted using a beta counter (Beckman Coulter, Fullerton, Calif.). Inhibition of PHD2181-417 activity was measured as a decrease in succinic acid production. The IC50 values were estimated by fitting the data to a three-parameter logistic function using GraphPad Prism, version 4.02 (Graph Pad Software, San Diego, Calif.).

Row | Enzyme pIC50 | SMILES
1 | 7.2 | CCCN(CCC)c1nc(-n2cc(C(=O)O)cn2)nc2cc(Oc3ccccc3)ccc12 [Example 93, 1-(4-(Dipropylamino)-7-phenoxyquinazolin-2-yl)-1H-pyrazole-4-carboxylic acid]
2 | 7.2 | CCN(CC)c1nc(-n2cc(C(=O)O)cn2)nc2ccc(OC3CCCCC3)cc12 [Example 174, 1-(6-(cyclohexyloxy)-4-(diethylamino)quinazolin-2-yl)-1H-pyrazole-4-carboxylic acid]
3 | 7.2 | O=C(O)c1cnn(-c2nc(N3CCCC3)c3cc(OC4CCCCC4)ccc3n2)c1 [Example 175, 1-(6-(cyclohexyloxy)-4-(pyrrolidin-1-yl)quinazolin-2-yl)-1H-pyrazole-4-carboxylic acid]

More lines, now with the values behind:

Row | SMILES | Enzyme pIC50
4 | Cc1cccc(C)c1Oc1cc2c(N)nc(-n3cc(C(=O)O)cn3)nc2cc1F [Example 1, 1-[4-Amino-6-(2,6-dimethyl-phenoxy)-7-fluoro-quinazolin-2-yl]-1H-pyrazole-4-carboxylic acid] | 7.2
5 | Cc1cccc(C)c1Oc1cc2c(N(C)C)nc(-n3cc(C(=O)O)cn3)nc2cc1F [Example 3, 1-[4-Dimethylamino-6-(2,6-dimethyl-phenoxy)-7-fluoro-quinazolin-2-yl]-1H-pyrazole-4-carboxylic acid] | 7.2
6 | Cc1cccc(C)c1Oc1cc2c(Nc3ccccc3Cl)nc(-n3cc(C(=O)O)cn3)nc2cc1F [Example 7, 1-[4-(2-Chloro-phenylamino)-6-(2,6-dimethyl-phenoxy)-7-fluoro-quinazolin-2-yl]-1H-pyrazole-4-carboxylic acid] | 7.2
7 | Cc1cccc(C)c1Oc1cc2c(NCC3CC3)nc(-n3cc(C(=O)O)cn3)nc2cc1F [Example 15, 1-((4-Cyclopropanemethylamino)-6-(2,6-dimethylphenoxy)-7-fluoroquinazolin-2-yl)-1H-pyrazole-4-carboxylic acid] | 7.2
8 | Cc1cccc(C)c1CNc1nc(-n2cc(C(=O)O)cn2)nc2ccc(C3CCCCC3)cc12 [Example 23, 1-[6-Cyclohexyl-4-(2,6-dimethyl-benzylamino)-quinazolin-2-yl]-1H-pyrazole-4-carboxylic acid] | 5.9
9 | O=C(O)c1cnn(-c2nc(N3CCCCCC3)c3ccc(Oc4ccccc4)cc3n2)c1 [Example 87, 1-(4-(Azepan-1-yl)-7-phenoxyquinazolin-2-yl)-1H-pyrazole-4-carboxylic acid] | 7.2
